One test deals with Nociceptin receptor (Homo sapiens, UniProt P41146). Nature of the test: Agonist activity at human nociceptin opioid receptor transfected in CHO cell membranes assessed as stimulation of [35S]GTPgammaS binding after 60 mins by scintillation counting analysis.
Another test addresses Mu-type opioid receptor (Homo sapiens, UniProt P35372). Nature of the test: Displacement of [3H]DAMGO from human mu opioid receptor transfected in CHO cell membranes after 60 mins.

pEC50, pKi: −log10 of the molar value.

As for `O=C1Cc2ccccc2N1C1CCN([C@H]2CC[C@@H]3CCCc4cccc2c43)CC1`, on Nociceptin receptor, the negative logarithm of the EC50 (pEC50) was 7.07. For the same compound, the pKi at Mu-type opioid receptor is 7.38.

The values are drawn from BindingDB's records for 24657054.
